Compound activity: PubChem, National Center for Advancing Translational Sciences (NCATS)
miR-21 reporter: raises the signal of a miR-21 reporter | HeLa miR-21 FLuc reporter, luciferase, 48 h | Potency, µM (doses to about 38.3 µM), without a hit: at the top dose reporter change, positive = more light | 340,000 tested, under 10 active | AID 2288; active = well fitted rising curve with a large enough effect; inconclusive = small, poorly fitted or top-dose-only effect; inactive = no such curve, though single readings can be large or run the other way;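 note: % of control where 0% means no effect; miR-21 action dims this reporter so a rising signal means less miR-21 action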
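Using DMEM plus 10% FBS, HeLa miR-21-FLuc cells are incubated with test compounds (final up to about 40uM) for 48 hours; firefly luciferase signal is then imaged following reagent-mediated lysis.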
G9a block: G9a (human) methyltransferase inhibition | G9a H3K9 monomethylation, AlphaScreen, 2 h | Potency, µM (top dose mostly 102 µM), inactives show top-dose activity, negative = inhibition, usual class: inhibitors | AID 504332 | 8.8% of 350,000 active; note: potency is the fitted concentration of half-maximal effect; % is set by controls: 0 for no effect and ±100 for the full control effect; nearly all actives have a fitted effect of over 75% in size
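Methyltransferase reactions run at room temperature for 2 h (20 nM enzyme, 500 nM biotin-H3K9 peptide, 20 uM SAM) after a 15 min compound preincubation; product detected by AlphaScreen beads and anti-H3K9me1 antibody.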
LMNA splice mod: changes lamin A minigene splicing in HeLa cells; HeLa LMNA splicing GFP/RFP minigene ratio, 48 h; Potency, µM (titrated, usually from 46.1 µM), without a hit: at the highest dose ratio change, negative = inhibition, actives largely listed as inhibitors; 0.01% of 200,000 active; AID 1487; active = well fitted inhibition curve with a large enough effect in the signal ratio, with a control signal flat, not every such curve was filed as active; inconclusive = small, poorly fitted or top-dose-only effect, or effect the other way, or a change in a side signal; the % refers to the signal ratio; note: potency is the fitted concentration of half-maximal effect; % is set by controls: 0 for no effect and ±100 for the full control effect
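S3 HeLa cells stably expressing lamin A-EGFP splicing minigene plus DsRed2, 600 cells/well, 48 h compound exposure at 37C. Laser-scanning cytometry; analysed as GFP (500-530 nm)/RFP (575-640 nm) total intensity ratio; 0.5% DMSO vehicle.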
Sfp PPTase inh: inhibitors of Bacillus subtilis Sfp phosphopantetheinyl transferase | 310,000 compounds, 3.5% hits | Potency, µM, without a hit: max response, negative = inhibition, most hits filed as inhibitors | Q9F4F7 | Biochemical Sfp PPTase activity, qHTS; active = well fitted inhibition curve with a large enough effect; inconclusive = small, poorly fitted or top-dose-only effect, or another doubt; inactive = no such curve, though single readings can be large or run the other way;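 also: the enzyme is Sfp with the accession as filed and its product quenches rhodamine fluorescence; potency is read from the fitted curve at half-maximal effect; 0% = enzyme reaction without inhibitor and -100% = no enzyme wells; top concentration of the series not given in the record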
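After 15 min at room temperature with compound, 15 nM Sfp received 5 uM rhodamine-CoA plus 12.5 uM BHQ-2-ybbR (50 mM Hepes pH 7.6, 10 mM MgCl2). Rate came from the fluorescence difference over 30 min, ex 525/em 598 nm.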
ALDH1A1 block: blocks purified human ALDH1A1 activity. Purified ALDH1A1, NADH fluorescence, propionaldehyde substrate. 7.3% of 220,000 active. Potency, µM (highest dose often 75.3 µM), inactives show at the top dose activity, negative = inhibition, actives largely listed as inhibitors; active = well fitted inhibition curve with a large enough effect, not every such curve was filed as active; inconclusive = small, poorly fitted or top-dose-only effect, or another doubt; inactive = no such curve, though single readings can be large or run the other way;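 note: potency is the fitted concentration of half-maximal effect; plate controls were no enzyme wells and a reference inhibitor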
KDM4E inh: blocks human JMJD2E demethylase activity; JMJD2E catalytic domain, FDH-coupled NADH fluorescence (FDH is formaldehyde dehydrogenase); Potency, µM (series often up to 57.1 µM), inactives show at the highest dose activity change, negative = inhibition, hits mostly inhibitors; 1.6% of 230,000 active; AID 2147; active = well fitted inhibition curve with a large enough effect, not every such curve was filed as active; inconclusive = small, poorly fitted or top-dose-only effect, or another doubt; inactive = no such curve, though single readings can be large or run the other way;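 note: potency is the fitted concentration of half-maximal effect; 0% = wells with enzyme and -100% = buffer wells without enzyme; nearly all actives have a fitted effect of over 50% in size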
Numbers without * were called inactive; [ ] = remark or other dose. An excerpt weighted towards active compounds, which were near 13% of everything screened. Unless noted, calls come from the whole dose curve; as a rule, active = well fitted curve in the direction sought with a large enough effect; inconclusive = small, poorly fitted or top-dose-only effect, or another doubt; inactive = no such curve, though single readings can be large; an effect the other way counts as inactive or inconclusive.

How did CCC(=O)c1c(O)n(C2CCCCCC2)c(=O)[nH]c1=O do in these assays?
miR-21 reporter: -9.9%; G9a block: inconclusive; LMNA splice mod: inconclusive; Sfp PPTase inh: 6.8%; ALDH1A1 block: 25.1µM*; KDM4E inh: -25.3%

Results for C=CCn1c(O)c(C(CC)=NCCN2CCOCC2)c(=O)[nH]c1=O ?
miR-21 reporter: -5.9%; G9a block: 39.8µM*; LMNA splice mod: 1.3%; Sfp PPTase inh: 5.2%; ALDH1A1 block: -15.6%; KDM4E inh: -5.7%

How did C=CCn1c(O)c(C(CC)=Nc2ccccc2NC(C)=O)c(=O)[nH]c1=O do in these assays?
miR-21 reporter: -11.8%; G9a block: 1.41µM*; LMNA splice mod: 5.7%; Sfp PPTase inh: 13.4%; ALDH1A1 block: 8.6%; KDM4E inh: -2.4%

Results for CCC(=NCCCN(CC)CC)c1c(O)n(C2CCCCC2)c(=O)[nH]c1=O ?
miR-21 reporter: -14.4%; G9a block: 56.2µM*; LMNA splice mod: 8.6%; Sfp PPTase inh: 1.8%; ALDH1A1 block: inconclusive; KDM4E inh: -8.7%

Results for C=C(C)C1CCC(C)=CC1c1c(OC)cc(C)cc1OC (stereo unspecified) ?
Sfp PPTase inh: 0.7%

How did CCC(=NCCN1CCOCC1)c1c(O)n(C2CCCCC2)c(=O)[nH]c1=O do in these assays?
miR-21 reporter: 0.4%; G9a block: 35.5µM*; Sfp PPTase inh: 0.4%; KDM4E inh: inconclusive

Results for CCOC(=O)Cn1c(=O)oc2cc(S(=O)(=O)N3CCN(C(=O)c4ccco4)CC3)ccc21 ?
miR-21 reporter: -2.1%; G9a block: 16.0%; LMNA splice mod: inconclusive; Sfp PPTase inh: 6.0%; ALDH1A1 block: 1.1%; KDM4E inh: 5.1%

What do the screens show for `Cc1ccc(/C=C2\C(=O)NC(=O)N(Cc3ccccc3Cl)C2=O)o1`?
miR-21 reporter: -6.5%; G9a block: 12.6µM*; Sfp PPTase inh: 70.8µM*; ALDH1A1 block: inconclusive; KDM4E inh: -8.1%

Results for Cc1ccc(/C=C2/C(=O)NC(=O)N(CCc3ccc(F)cc3)C2=O)s1 ?
miR-21 reporter: -12.0%; G9a block: -21.6%[59 µM]; LMNA splice mod: -7.1%; Sfp PPTase inh: 6.7%; ALDH1A1 block: inconclusive; KDM4E inh: -10.9%

How did Cc1ccc(/C=C2\C(=O)NC(=O)N(CCc3ccc(F)cc3)C2=O)o1 do in these assays?
miR-21 reporter: -2.4%; G9a block: 3.16µM*; LMNA splice mod: -12.8%; Sfp PPTase inh: 39.8µM*; ALDH1A1 block: 5.01µM*; KDM4E inh: -25.4%

What do the screens show for `COc1ccc(CN2C(=O)NC(=O)/C(=C\c3cccc(OC)c3OC)C2=O)cc1`?
miR-21 reporter: -1.9%; G9a block: inconclusive; Sfp PPTase inh: 79.4µM*; ALDH1A1 block: inconclusive; KDM4E inh: -8.9%

What do the screens show for `COCCN1C(=O)NC(=O)/C(=C\c2ccc(Br)cc2)C1=O`?
miR-21 reporter: -2.0%; G9a block: 44.7µM*; LMNA splice mod: 10.1%[46 µM]; Sfp PPTase inh: 50.1µM*; ALDH1A1 block: inconclusive; KDM4E inh: -9.7%

What do the screens show for `CCN1C(=O)NC(=O)/C(=C\c2cn(CC(=O)N3CCCCC3C)c3ccccc23)C1=O` (stereo unspecified)?
miR-21 reporter: -4.7%; G9a block: 32.8%; Sfp PPTase inh: 11.5%

What do the screens show for `NCC1OC(O[C@@H]2[C@H](O)[C@@H](OC3C(O)C(N)CC(N)C3OC3OC(CO)C(O)C(O)C3N)O[C@@H]2CO)C(N)C(O)C1O` (stereo partly specified)?
G9a block: 10.9%[12.7 µM]; LMNA splice mod: -8.9%; ALDH1A1 block: 4.2%; KDM4E inh: 7.1%

How did Cc1ccc(/C=C2/C(=O)NC(=O)N(Cc3ccc(F)cc3)C2=O)o1 do in these assays?
miR-21 reporter: -1.6%; Sfp PPTase inh: 35.5µM*; KDM4E inh: -1.5%

What do the screens show for `CN(C)c1ccc(/C=C2/C(=O)NC(=O)N(CCc3ccc(F)cc3)C2=O)cc1`?
miR-21 reporter: 0.0%; G9a block: inconclusive; LMNA splice mod: 4.7%; Sfp PPTase inh: -22.7%; ALDH1A1 block: 0.631µM*; KDM4E inh: -26.1%

How did O=C1NC(=O)C(CCc2ccncc2)(CCc2ccncc2)C(=O)N1Cc1ccc(F)cc1 do in these assays?
miR-21 reporter: 0.0%; Sfp PPTase inh: 1.8%; ALDH1A1 block: 14.9%; KDM4E inh: 2.8%

How did Cc1ccc(/C=C2/C(=O)NC(=O)N(CC3CCCO3)C2=O)s1 (stereo unspecified) do in these assays?
miR-21 reporter: -22.4%; G9a block: 12.6µM*; LMNA splice mod: 0.3%; Sfp PPTase inh: inconclusive; ALDH1A1 block: 10µM*; KDM4E inh: -8.2%

How did Cc1ccc(/C=C2\C(=O)NC(=O)N(CCc3ccc(F)cc3)C2=O)s1 do in these assays?
miR-21 reporter: -13.3%; G9a block: inconclusive; Sfp PPTase inh: -11.1%; ALDH1A1 block: 1.58µM*; KDM4E inh: 4.9%

Results for CN(C)c1ccc(/C=C2\C(=O)NC(=O)N(Cc3ccc(F)cc3)C2=O)cc1 ?
miR-21 reporter: -3.0%; Sfp PPTase inh: -17.5%; KDM4E inh: inconclusive

Reprinted from the part before: 2 entries; new compounds follow.
How did Cc1ccc(/C=C2\C(=O)NC(=O)N(CCc3ccc(F)cc3)C2=O)s1 do in these assays?
miR-21 reporter: -13.3%; G9a block: inconclusive; Sfp PPTase inh: -11.1%; ALDH1A1 block: 1.58µM*; KDM4E inh: 4.9%

Results for CN(C)c1ccc(/C=C2\C(=O)NC(=O)N(Cc3ccc(F)cc3)C2=O)cc1 ?
miR-21 reporter: -3.0%; Sfp PPTase inh: -17.5%; KDM4E inh: inconclusive

How did CC(=O)c1c(C)n(CC2CCCO2)c2ccc(O)cc12 (stereo unspecified) do in these assays?
miR-21 reporter: -0.9%; G9a block: -4.2%[59 µM]; LMNA splice mod: 6.3%; Sfp PPTase inh: 14.1%; ALDH1A1 block: -1.0%; KDM4E inh: 7.1%

How did CCOP(=O)(OCC)c1nc(-c2ccc(F)cc2)oc1NCc1ccccc1 do in these assays?
miR-21 reporter: -4.2%; G9a block: 28.9%[12.7 µM]; LMNA splice mod: inconclusive; Sfp PPTase inh: 5.5%; ALDH1A1 block: inconclusive; KDM4E inh: inconclusive

Results for Cc1cccc(N(CC(=O)NCCSc2ccc(Cl)cc2)S(=O)(=O)c2ccccc2)c1C ?
miR-21 reporter: inconclusive; G9a block: -49.8%[59 µM]

Results for CCOc1cc(/C=C2\C(=O)NC(=O)N(CCc3ccc(F)cc3)C2=O)ccc1O ?
miR-21 reporter: 9.1%; G9a block: 39.8µM*; Sfp PPTase inh: 70.8µM*; KDM4E inh: inconclusive

What do the screens show for `COc1ccc(C2C([N+](=O)[O-])=C(N)Oc3c2c(=O)oc2ccccc32)cc1` (stereo unspecified)?
miR-21 reporter: -5.5%; G9a block: 4.5%[59 µM]; LMNA splice mod: -9.7%; Sfp PPTase inh: 18.6%; ALDH1A1 block: inconclusive; KDM4E inh: -18.1%

What do the screens show for `CN(C)CCCN=Cc1c(O)n(CCc2ccc(F)cc2)c(=O)[nH]c1=O`?
miR-21 reporter: -2.1%; G9a block: inconclusive; LMNA splice mod: 4.4%; Sfp PPTase inh: 14.8%; ALDH1A1 block: 11.8%; KDM4E inh: 5.0%
